This test addresses Chymotrypsinogen A (Bos taurus, UniProt P00766). Put plainly: Compound was tested for its activity against bovine pancreatic Alpha-chymotrypsin (BPC).

As a reminder, the IC50 is the concentration at which inhibition is half-maximal. Lower therefore signals greater potency in that assay.

In turn, `C[C@H]1C(=O)N(C(=O)NCc2ccncc2)[C@H]1Cc1ccccc1` registered an IC50 of 16 µM.
In the case of `C[C@@H]1C(=O)N(C(=O)NCc2ccncc2)[C@H]1Cc1ccccc1` it was over 75 µM.

The values above are taken from ChEMBL document CHEMBL1131042, “beta-Lactam derivatives as inhibitors of human cytomegalovirus protease” (J Med Chem, 1998).
